Reference: article PMC5308240, “A Novel Toxin from Haplopelma lividum Selectively Inhibits the NaV1.8 Channel and Possesses Potent Analgesic Efficacy” (Toxins, 2016)

By UniProt entry, the sequences of proteins in these tests, tags left out.
UniProt Q9Y5Y9, whole entry: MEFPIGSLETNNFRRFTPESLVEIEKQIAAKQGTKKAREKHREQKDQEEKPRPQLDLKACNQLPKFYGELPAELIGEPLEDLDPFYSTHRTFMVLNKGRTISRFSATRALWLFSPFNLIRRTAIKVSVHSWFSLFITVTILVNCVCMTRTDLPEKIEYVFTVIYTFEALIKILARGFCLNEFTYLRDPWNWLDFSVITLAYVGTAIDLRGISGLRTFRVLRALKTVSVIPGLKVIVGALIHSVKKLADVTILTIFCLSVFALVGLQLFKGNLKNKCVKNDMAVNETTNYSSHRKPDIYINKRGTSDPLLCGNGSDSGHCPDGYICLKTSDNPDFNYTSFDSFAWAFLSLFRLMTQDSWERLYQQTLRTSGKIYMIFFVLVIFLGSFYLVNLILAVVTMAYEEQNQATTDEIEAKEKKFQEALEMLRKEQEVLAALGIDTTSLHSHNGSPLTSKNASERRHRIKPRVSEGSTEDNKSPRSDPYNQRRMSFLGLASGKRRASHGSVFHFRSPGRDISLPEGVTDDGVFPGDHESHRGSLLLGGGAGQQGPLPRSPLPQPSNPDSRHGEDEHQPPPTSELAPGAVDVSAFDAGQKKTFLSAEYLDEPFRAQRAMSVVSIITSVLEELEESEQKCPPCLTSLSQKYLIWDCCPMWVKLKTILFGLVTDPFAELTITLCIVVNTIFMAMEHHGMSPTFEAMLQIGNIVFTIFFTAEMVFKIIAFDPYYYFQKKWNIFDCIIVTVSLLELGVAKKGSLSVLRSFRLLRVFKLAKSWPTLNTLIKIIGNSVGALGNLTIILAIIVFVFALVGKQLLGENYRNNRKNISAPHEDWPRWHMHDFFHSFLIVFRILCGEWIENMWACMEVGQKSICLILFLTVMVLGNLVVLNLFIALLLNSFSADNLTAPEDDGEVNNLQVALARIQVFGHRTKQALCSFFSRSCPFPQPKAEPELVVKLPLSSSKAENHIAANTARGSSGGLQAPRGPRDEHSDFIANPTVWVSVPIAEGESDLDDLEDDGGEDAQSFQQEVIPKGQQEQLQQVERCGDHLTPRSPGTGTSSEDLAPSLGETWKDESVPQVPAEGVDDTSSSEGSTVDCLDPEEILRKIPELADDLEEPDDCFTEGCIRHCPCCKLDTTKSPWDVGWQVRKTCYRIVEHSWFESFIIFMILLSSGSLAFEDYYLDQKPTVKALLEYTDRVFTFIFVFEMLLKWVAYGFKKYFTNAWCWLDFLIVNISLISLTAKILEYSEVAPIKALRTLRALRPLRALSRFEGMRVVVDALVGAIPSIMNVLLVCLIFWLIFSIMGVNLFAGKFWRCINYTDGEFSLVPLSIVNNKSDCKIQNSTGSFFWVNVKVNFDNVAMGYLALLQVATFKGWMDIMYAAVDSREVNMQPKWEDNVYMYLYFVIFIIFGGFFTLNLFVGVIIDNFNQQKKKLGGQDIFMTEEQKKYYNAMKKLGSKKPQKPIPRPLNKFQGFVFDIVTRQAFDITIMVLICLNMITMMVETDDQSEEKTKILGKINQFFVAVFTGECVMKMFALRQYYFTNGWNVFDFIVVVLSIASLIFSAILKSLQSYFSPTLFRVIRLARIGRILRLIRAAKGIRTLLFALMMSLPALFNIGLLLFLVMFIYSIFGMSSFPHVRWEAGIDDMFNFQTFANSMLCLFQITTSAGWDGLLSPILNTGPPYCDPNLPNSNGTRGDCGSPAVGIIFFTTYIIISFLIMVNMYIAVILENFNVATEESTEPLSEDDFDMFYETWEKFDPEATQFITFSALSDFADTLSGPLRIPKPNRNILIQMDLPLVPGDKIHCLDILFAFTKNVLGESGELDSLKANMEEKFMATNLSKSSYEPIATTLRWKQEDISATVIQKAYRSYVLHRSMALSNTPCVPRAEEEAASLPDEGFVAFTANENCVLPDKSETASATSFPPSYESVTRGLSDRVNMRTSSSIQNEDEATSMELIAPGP

Molecular target: T1, NaV1.8 (Homo sapiens, UniProt Q9Y5Y9)
T1 construct: expressed in transfected cells; host or cells: ND7/23 cells (transient transfection, lipo2000)
Assay: Whole-cell patch clamp on NaV1.8 expressed in ND7/23 cells
Assay type: cell-based
Details: human NaV1.8 with β1 and eGFP in ND7/23 cells
Description: Therefore, the activities of µ-TRTX-Hl1a on human sodium channel subtypes NaV1.1–NaV1.8 were further investigated. Sodium channel subtypes β1 and eGFP were transiently transfected into ND7/23 cells and currents were elicited by a depolarizing potential of −10 mV from a holding potential of −80 mV. 2 µM µ-TRTX-Hl1a could reduce about 50% of the NaV1.8 current and the inhibition was dose-dependent (Figure 5A).
Human sodium channel subtype Nav1.1–Nav1.7 were transiently transfected into HEK293T cells and NaV1.8, β1, and eGFP were transiently transfected into ND7/23cells following the manufacture instruction (lipo2000, Invitrogen, Carlsbad, CA, USA). The whole cell patch clamp recordings were carried out as previously described. The standard pipette solution contained (in mM) 140 CsF, 1 EGTA, 10 NaCl, 3 KCl, and 10 MgCl2, PH 7.3. […]
Experiments data were acquired and analyzed by using Clampfit 10.0 (Molecular Devices, Sunnyvale, CA, USA) and Sigmaplot (Systat Software Incx, San Jose, CA, USA) programs. Data were analyzed using the Clampfit (Axon, Sunnyvale, CA, USA) and Sigmaplot 9.0 (Systat Software Incx, San Jose, CA, USA) software programs. […] Conductance (G)–voltage relationships were determined from peak current (I) versus voltage relationships as G = I/(V − Vrev), where V was the test potential, and Vrev was the extrapolated reversal potential. Data were analyzed by using GraphPad Prism 4.

## CC[C@H](C)[C@@H]1NC(=O)[C@H](CCCNC(=N)N)NC(=O)[C@H]([C@@H](C)O)NC(=O)[C@@H]2CSSC[C@H](NC(=O)[C@H]([C@@H](C)O)NC(=O)[C@H](Cc3c[nH]c4ccccc34)NC(=O)[C@H](Cc3ccc(O)cc3)NC(=O)[C@H]([C@@H](C)O)NC(=O)[C@H](CC(=O)O)NC(=O)[C@H](CO)NC(=O)[C@@H]3CSSC[C@@H]4NC(=O)[C@@H]5CCCN5C(=O)[C@H](Cc5c[nH]c6ccccc56)NC(=O)[C@H]([C@@H](C)O)NC(=O)[C@H](CCCCN)NC(=O)[C@H](CCCCN)NC(=O)CNC(=O)[C@@H](NC(=O)[C@H](CCC(=O)O)NC(=O)[C@@H](N)[C@@H](C)O)CSSC[C@H](NC(=O)[C@H](CSSC[C@@H](C(=O)N[C@H](C(=O)O)C(C)C)NC1=O)NC(=O)[C@H](CC(=O)O)NC(=O)[C@H](CCC(=O)O)NC(=O)[C@H](CO)NC(=O)[C@H]([C@@H](C)O)NC(=O)[C@H](CCC(=O)O)NC4=O)C(=O)N[C@@H](CC(=O)O)C(=O)NCC(=O)N[C@@H](CC(=O)O)C(=O)N3)C(=O)N[C@@H](Cc1c[nH]cn1)C(=O)N[C@@H](CC(C)C)C(=O)NCC(=O)N[C@@H](Cc1ccccc1)C(=O)NCC(=O)N2 [µ-TRTX-Hl1a]
2 µM toxin, depolarization to −10 mV from −80 mV
  reduction of NaV1.8 current: about 50%
dose-response, mean ± S.E., SEM
  IC50: 2190 ± 70 nM
